Experimental data as given in publication PMC4770093, “The role of kinetic context in apparent biased agonism at GPCRs” (Nature Communications, 2016).

By UniProt entry, the sequences of proteins in these tests, tags left out. Where a name states a change or a piece, a line headed by the entry shows the natural chain unless it says otherwise.
UniProt P14416, whole entry: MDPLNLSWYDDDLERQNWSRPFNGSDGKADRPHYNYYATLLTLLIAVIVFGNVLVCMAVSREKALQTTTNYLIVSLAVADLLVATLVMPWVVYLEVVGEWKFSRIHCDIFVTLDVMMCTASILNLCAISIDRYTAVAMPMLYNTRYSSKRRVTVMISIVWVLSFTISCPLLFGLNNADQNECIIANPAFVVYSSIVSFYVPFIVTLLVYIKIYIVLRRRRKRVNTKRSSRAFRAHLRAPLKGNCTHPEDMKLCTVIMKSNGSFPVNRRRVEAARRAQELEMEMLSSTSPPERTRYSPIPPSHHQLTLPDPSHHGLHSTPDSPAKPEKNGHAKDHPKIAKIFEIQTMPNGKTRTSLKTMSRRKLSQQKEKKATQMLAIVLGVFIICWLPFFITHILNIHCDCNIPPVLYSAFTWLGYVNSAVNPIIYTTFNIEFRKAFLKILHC

Tests used:
[1] = target: SNAP-tagged human dopamine D2L (Homo sapiens, UniProt P14416); test: Tag-lite PPHT-red competition kinetic binding (HTRF); details: PPHT-red tracer
D2LR [2] = target: T1, D2LR (Homo sapiens, UniProt P14416); details: 0.1 nM [3H]spiperone; 3 h at 37 °C; 100 μM GppNHp
D2LR [3] = target: T1, D2LR; test: GαoB G protein activation (BRET);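 also: Flp-In-CHO cells stably expressing D2LR, transiently transfected, agonist-stimulated in HBSS at 37 °C, net BRET read after coelenterazine, vehicle control subtracted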
D2LR [4] = target: T1, D2LR; test: xCELLigence cellular impedance (CI) assay
D2LR [5] = target: T1, D2LR; test: Inhibition of forskolin-induced cAMP production (BRET CAMYEL biosensor)

For CCCN1CCC[C@@H](c2cccc(O)c2)C1 [S-3PPP, (S)-(-)-3-(3-hydroxyphenyl)-N-propylpiperidine], the “pKd (affinity determined from kinetic parameters)” value [1] was 6.11, the “pKi (affinity from competition binding experiments using [3H]spiperone)” value (D2LR [2]) was 5.84 ± 0.06 and the “pEC50 Gao” value (D2LR [3]; 2 min) was 6.46. The “pEC50 Gao” value (D2LR [3]; 5 min) was 6.54, the “pEC50 Gao” value (D2LR [3]; 10 min) was 6.57 and the “pEC50 Gao” value (D2LR [3]; 15 min) was 6.67. The “pEC50 Gao” value (D2LR [3]; 30 min) was 7.02, the “pEC50 Gao” value (D2LR [3]; 45 min) was 6.78 and the “pEC50 Gao” value (D2LR [3]; 60 min) was 6.79. For the same molecule, the “pEC50 Gao” value (D2LR [3]; 75 min) was 6.62, the “pEC50 Gao” value (D2LR [3]; 90 min) was 6.77 and the “pEC50 CI” value (D2LR [4]; 2 min) was 7.66. The “pEC50 CI” value (D2LR [4]; 5 min) was 7.67, the “pEC50 CI” value (D2LR [4]; 10 min) was 7.58 and the “pEC50 CI” value (D2LR [4]; 15 min) was 7.58. For the same molecule, the “pEC50 CI” value (D2LR [4]; 30 min) was 7.50, the “pEC50 CI” value (D2LR [4]; 45 min) was 7.41 and the “pEC50 CI” value (D2LR [4]; 60 min) was 7.39. For the same molecule, the “pEC50 CI” value (D2LR [4]; 75 min) was 7.40, the “pEC50 CI” value (D2LR [4]; 90 min) was 7.41 and the “pEC50 cAMP” value (D2LR [5]; 2 min) was 7.10. The “pEC50 cAMP” value (D2LR [5]; 5 min) was 6.78, the “pEC50 cAMP” value (D2LR [5]; 10 min) was 6.43 and the “pEC50 cAMP” value (D2LR [5]; 15 min) was 6.37. The “pEC50 cAMP” value (D2LR [5]; 30 min) was 6.47, the “pEC50 cAMP” value (D2LR [5]; 45 min) was 5.99 and the “pEC50 cAMP” value (D2LR [5]; 60 min) was 5.82. The “pEC50 cAMP” value (D2LR [5]; 75 min) was 6.04 and the “pEC50 cAMP” value (D2LR [5]; 90 min) was 5.82.
